This experiment addresses Pyruvate kinase PKM (Homo sapiens, UniProt P14618). Put plainly: Activation of PKM2 assessed as reduction of Km for phosphoenolpyruvate relative to untreated control. In short, it runs like this:
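Steady-state kinetics were measured by the PK–LDH coupled assay at about 22 °C with 10 nM PKM2, 200 mM KCl and 15 mM MgCl2. One substrate (PEP or ADP) was varied with the other held at 4.0 mM, with or without activator. Fluorescence was converted to pmol NADH by a standard curve; initial rates (pmol/min) were fit for KM.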

By UniProt entry, the sequences of proteins in these tests, tags left out.
UniProt P14618, whole entry, looked up: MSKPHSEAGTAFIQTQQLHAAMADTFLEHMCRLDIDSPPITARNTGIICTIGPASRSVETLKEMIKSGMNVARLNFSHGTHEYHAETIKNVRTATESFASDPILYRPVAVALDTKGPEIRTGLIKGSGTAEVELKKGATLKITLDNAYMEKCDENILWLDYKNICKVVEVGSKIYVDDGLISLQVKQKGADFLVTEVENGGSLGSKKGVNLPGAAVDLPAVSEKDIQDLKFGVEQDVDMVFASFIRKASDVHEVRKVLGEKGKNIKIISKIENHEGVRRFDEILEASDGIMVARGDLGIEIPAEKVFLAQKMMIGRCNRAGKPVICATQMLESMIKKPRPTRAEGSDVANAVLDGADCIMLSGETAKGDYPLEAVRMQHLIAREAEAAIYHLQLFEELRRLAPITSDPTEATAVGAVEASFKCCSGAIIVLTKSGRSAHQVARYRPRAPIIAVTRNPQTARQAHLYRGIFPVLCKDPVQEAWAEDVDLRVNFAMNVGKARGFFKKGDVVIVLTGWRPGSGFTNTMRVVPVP

Consider `O=P(O)(O)OC[C@H]1O[C@@](O)(COP(=O)(O)O)[C@@H](O)[C@@H]1O`, for which the fold change (FC) turned out to be 10.

The values are drawn from ChEMBL document CHEMBL1156261, “Evaluation of substituted N,N'-diarylsulfonamides as activators of the tumor cell specific M2 isoform of pyruvate kinase” (J Med Chem, 2010).
